Results on one molecule are retold here after publication PMC7262777 (Journal of medicinal chemistry, 2020).

The nature of this data set: Mouse pharmacokinetics, plasma and brain. The conditions noted are these: mice, 20 mg/kg IP.

With `COc1ccc(OCCN2CCN(C(=O)c3cc4ccccc4[nH]3)CC2)cc1` [Compound 20, (1H-Indol-2-yl)(4-(2-(4-methoxyphenoxy)ethyl)piperazin-1-yl)methanone], the brain penetration result is “brain penetrant”.
